Apparent affinities of Ab-14 variants for a coronavirus HR2 peptide

Data: MIT Lincoln Laboratory AlphaSeq set, Li et al. 2023, doi:10.1038/s41467-023-39022-2, as distributed in FLAb.

Target: peptide PDVDLGDISGINAS, taken from heptad repeat 2 (HR2) of SARS-CoV-2 spike.

Each scFv is VH, a 15-residue (Gly4Ser)3 linker, VL, as in the parent Ab-14, and differs from it in the CDRs of the light chain only.
VH: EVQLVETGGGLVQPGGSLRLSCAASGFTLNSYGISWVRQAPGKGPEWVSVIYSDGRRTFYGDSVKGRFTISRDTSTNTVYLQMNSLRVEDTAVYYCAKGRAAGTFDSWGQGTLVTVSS
VL: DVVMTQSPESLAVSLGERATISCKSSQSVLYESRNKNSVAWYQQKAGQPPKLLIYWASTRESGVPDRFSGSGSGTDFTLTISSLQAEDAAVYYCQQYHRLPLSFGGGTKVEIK

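The starting antibody came from a phage panning campaign against this peptide. Designed CDR sequences, proposed from the first random library and measured here. Several design methods are mixed in this list. In AlphaSeq, yeast of one mating type display the scFv and yeast of the other type display the target. Pairs that bind mate more often; barcode pairs of the diploids are counted by sequencing. Scores were corrected for input abundance and mapped to Kd with protein pairs of known affinity run in the same pool. Each pool was mated in six replicate cultures.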

Each variant is given by its three light chain CDRs, as the data file delimits them; those of the parent are KSSQSVLYESRNKNSVA, WASTRES, QQYHRLPLS.
Numbers give log10(Kd / nM), so 0 is 1 nM and 3 is 1 µM. Smaller is tighter.
Replicates are averaged; those with no signal do not enter the mean.
A pair that was not seen in any replicate is written "not detected"; this usually means weak binding, but a binder can also be missed.

CDR-L1,CDR-L2,CDR-L3,mean log10 Kd (nM),seen in,empty controls
KSSFSVLFESRNKNSVA,NASTRES,QQYHRLPLS,1.75,6 of 6,2 of 18
KLWQSTLYESRNKNSVA,NASTRLS,QQYHRLPLS,-0.04,6 of 6,0 of 18
KMSQSVLNESRNKNSVA,DASTRES,QVYHRLPLS,0.29,6 of 6,0 of 18
KSSQSVLDESSNKNSVA,EAYTRES,QQYHRLPLS,0.40,6 of 6,2 of 18
ALSQSVDLESVHKNSIA,DLMTRES,QQYHRLPLS,0.00,6 of 6,0 of 18
KQSQEKLYESRNKNNVA,DASTREQ,QQYHRLPLS,0.26,6 of 6,0 of 18
KAQDGELYESRDDNSVA,DASKRLS,QQYHRLPLS,-0.21,6 of 6,0 of 18
KLSWSVLYESGNKNSVA,HASTRED,QQYHRLPLS,0.03,6 of 6,1 of 18
KLSTSWGYEKRNKNSVA,QASQRES,QQYHRLPLS,0.18,6 of 6,1 of 18
TIFQERSYLDGDERNIA,DARTRND,QQYNRLPLV,0.59,6 of 6,0 of 18
KVVQSVLYESRNKNSVA,DASTRES,QQYHRLPLS,-0.27,6 of 6,2 of 18
KISQSVLYESRNKNSVA,DASTRMS,QQYHRLPLS,-0.27,6 of 6,0 of 18
KFSQSVLYESRAKNSVA,EASTRES,QQYHRLPLS,-0.37,6 of 6,3 of 18
NLTTGYEQGALNTDNIA,HGNMTEA,QQYYRLPLS,0.15,6 of 6,3 of 18
KSSISYLYESRNKNSVA,EASTRES,QQYHRLPLS,0.31,6 of 6,1 of 18
KVSQSELYEDRNKNSVA,NASTRES,QQYHRLPLS,0.50,6 of 6,0 of 18
KLQQSVLYESRNKNSVA,NASTRRS,QQYHRLPLS,0.29,6 of 6,2 of 18
KLSMKTYGPTEIDSNVA,NDEMRWQ,QQYDKLPLI,1.32,3 of 6,0 of 18
TISQMTSLFSQSINNVA,EVSTREK,QQYDRLPLM,0.53,6 of 6,3 of 18
KSSDLVLYESRNKNSVA,WASTRES,DQYHILPWS,not detected,0 of 6,0 of 18
KSSQSYLAESRNKNSVA,WASTRSS,QQYHRLPLS,1.46,6 of 6,1 of 18
KLSQSELYESRNKNSVA,NASTRES,QQYHRLPLM,-0.25,6 of 6,0 of 18
DFALDQDSMGEAKNSIA,DRNTKAH,QQYSRLPLV,0.57,6 of 6,1 of 18
MISDLTMYGSRGKNSVA,DLSTRGS,QQYHRLPLS,0.61,6 of 6,2 of 18
KIEEYTKGDRYFQYSIA,QGDIREK,QQYGQLPLT,1.64,6 of 6,1 of 18
KYSQSVLYESRNKNSVA,HASVRES,QQYHYLPLS,0.67,6 of 6,0 of 18
KYYPSYLYESRNKNSVA,GASTRES,QQYHRLPLS,0.09,6 of 6,0 of 18
KCSQSVDYESRQKNSVA,NASTRLS,QQYHRLPLS,0.54,6 of 6,0 of 18
KSSTSVLYESRNKNSVA,NASCRES,QQYHRLPLS,0.69,6 of 6,1 of 18
KLTEQLYNGEREPSSIA,AGVIGSD,QQYHQLPLI,1.62,6 of 6,0 of 18
RMDMALPHAHNNINSIA,EGAIVAD,QQYDRLPLW,0.42,6 of 6,0 of 18
KSMQEWEYQSRNKNSVA,HASLRES,QQYHRLPLS,0.72,6 of 6,2 of 18
QISMLLNFESKVGNNVA,QMETRVN,QQYDRLPLS,1.55,6 of 6,0 of 18
KISQSVDYESTNKNSVA,WASTRES,QQYHRLPLS,2.20,4 of 6,1 of 18
KVSQSMLYESRNANSVA,NASQRLE,QQYHRLPLS,0.21,6 of 6,0 of 18
KVSQSVLYESRNKNSVA,DASTRES,QQYQRLPLS,-0.35,6 of 6,0 of 18
KVSQSVPYEQRNKNSVA,EASTRES,QQYHRLPLS,-0.27,6 of 6,1 of 18
KLGQSVAMTSRMTNNVA,DLNERER,QQYHRLPLS,0.01,6 of 6,0 of 18
KESQSEPYESRNKNSVA,NASQRMS,QQYHRLPLS,0.02,6 of 6,2 of 18
KLEPSELEESRNKNSVA,SASTRES,QDYHRLPLS,0.83,6 of 6,1 of 18
IISQSVLGGYHNKNSVA,QTSERGQ,QQYDRLPLS,0.42,6 of 6,0 of 18
KISDMMQTDMGRVSAVA,DDDVAND,QQYARLPLA,1.21,6 of 6,1 of 18
KVSVSQPYESRNKNSVA,NASTREE,QQYHRLPLS,-0.49,6 of 6,1 of 18
TISQLMNMGQFAINSVA,QASIRNM,QQYDRLPLI,1.83,6 of 6,1 of 18
KSSQSVLYESRNKNSEA,WASNRES,QQYHRLPLS,1.58,1 of 6,0 of 18
KLSQVTHSEHKVKNNIA,EMVTREK,QQYDRLPLS,0.21,6 of 6,0 of 18
KFQQSVCYEDRVKNSVA,NASDRMS,QQYHRLPLS,0.20,6 of 6,2 of 18
KSSQCWLDEIRNKNSVA,GASTRES,QQYHRLPLS,-0.22,6 of 6,0 of 18
NLQNIGSENSVWKNAIA,DVNIKES,QQYFRLPLL,0.54,6 of 6,0 of 18
KSLQSVLYESRDKNSVA,DASTRED,QQYHRLPLS,0.40,6 of 6,1 of 18
KLSDSVLQESRNKNSVA,DASTRES,QQYHRLPLS,-0.41,6 of 6,1 of 18
MLSDLVKGGVRNTNSVA,DNSTRGS,QQYDRLPLS,1.51,6 of 6,3 of 18
KTSISVLYNSRNKNGVA,WASTRES,QQYHRLPLS,not detected,0 of 6,0 of 18
SLVQEKSVGDKNMGNIA,AANQLSV,QQYNRLPLS,-0.01,6 of 6,0 of 18
NVSQSWLYESRNKNSVA,GGNTRES,QQYHRLPLS,-0.04,6 of 6,2 of 18
MMSQVTGMGSRQRNNVA,QTETREP,QQYDRLPLI,1.90,6 of 6,3 of 18
KIRVQQYSQSEMESNIA,GESVRHQ,QQYFHLPLT,1.08,6 of 6,0 of 18
FMEMDFQENSGRGSSIA,SEEVKTT,QQYGRLPLS,1.44,5 of 6,1 of 18
MSMQSVLYESRNKYSVA,WASTRES,QQYHRLPLS,not detected,0 of 6,0 of 18
KSSQEQLPESRMKNSVA,AASTRES,QQYHRLPLS,0.28,6 of 6,0 of 18
KLSQWQWGEDRNKNSVA,SASTRCS,QQYHRLPLS,0.10,6 of 6,1 of 18
KLSQSMLYESRNKNSVA,NASTRED,QQYHRLPLS,-0.63,6 of 6,0 of 18
KISQMHRVGSTHGNSIA,EEATRAK,QQYHRLPLF,2.13,6 of 6,2 of 18
KLPQSWLYESRNKNSVA,NASQRMS,QQYHRLPLS,-0.23,6 of 6,0 of 18
KLSQSVDYEDRNCNAVA,AASQREE,QQYHRLPLS,0.30,6 of 6,0 of 18
KLSQSVDYESRNKNSVA,DASTRES,QQYHRLPLS,-0.25,6 of 6,0 of 18

Top 6 of the variants detected in all replicates, tightest first:

CDR-L1,CDR-L2,CDR-L3,mean log10 Kd (nM),seen in,empty controls
KLSQSMLYESRNKNSVA,NASTRED,QQYHRLPLS,-0.63,6 of 6,0 of 18
KVSVSQPYESRNKNSVA,NASTREE,QQYHRLPLS,-0.49,6 of 6,1 of 18
KLSDSVLQESRNKNSVA,DASTRES,QQYHRLPLS,-0.41,6 of 6,1 of 18
KFSQSVLYESRAKNSVA,EASTRES,QQYHRLPLS,-0.37,6 of 6,3 of 18
KVSQSVLYESRNKNSVA,DASTRES,QQYQRLPLS,-0.35,6 of 6,0 of 18
KISQSVLYESRNKNSVA,DASTRMS,QQYHRLPLS,-0.27,6 of 6,0 of 18

Of ten entries with the parent sequence, four were seen in most replicates (averages 0.34 to 2.37), three in one and three in none, so single entries are noisy.
Values of this round are not directly comparable with the first-round values of the same sequences.
The authors' rule: three or more of the six replicates give a measured affinity, fewer mean a poor binder.
Background: pairings of all light chain designs with three empty control strains gave a value in 4% of cases (median 2.64, 5th percentile 1.59). Values in that range, when seen in few replicates, are hard to tell from nonspecific mating. Also given: how often the same scFv was detected with the empty control strains.